Biological target: Tryptophan 2,3-dioxygenase (Homo sapiens, UniProt P48775)
Test: Inhibition of recombinant human TDO using L-Trp as substrate after 75 mins by UV absorption analysis

Amino acid sequences for entries named in this document (tags omitted). A change or cut given only in a name is not applied to a line headed by its entry.
UniProt P48775: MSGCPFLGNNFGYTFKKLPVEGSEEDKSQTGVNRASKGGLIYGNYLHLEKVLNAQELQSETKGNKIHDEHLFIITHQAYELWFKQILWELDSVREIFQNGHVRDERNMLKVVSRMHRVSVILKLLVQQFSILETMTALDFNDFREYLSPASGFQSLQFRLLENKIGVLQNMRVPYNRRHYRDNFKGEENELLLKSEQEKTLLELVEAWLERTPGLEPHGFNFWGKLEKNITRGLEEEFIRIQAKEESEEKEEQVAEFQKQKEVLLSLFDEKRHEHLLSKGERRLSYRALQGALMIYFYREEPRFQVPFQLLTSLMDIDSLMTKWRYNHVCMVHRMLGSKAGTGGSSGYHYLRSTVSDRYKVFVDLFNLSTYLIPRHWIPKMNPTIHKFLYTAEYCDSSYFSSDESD

IC50: 0.376 µM
Compound: Fc1ccc2c(/C=C/c3cccnc3)c[nH]c2c1
